Experimental data: patent publication US20210275698A1, “COMPOUNDS AND COMPOSITIONS FOR TARGETING MACROPHAGES AND OTHER MANNOSE-BINDING C-TYPE LECTIN RECEPTOR HIGH EXPRESSING CELLS AND METHODS OF TREATING AND DIAGNOSIS USING SAME” (priority 2015, published 2021)

System: KS tumor cells and CD206+ TAMs
Settings: confocal microscopy of fresh KS organ culture

Substance: dextran 3-[(2-aminoethyl)thio]propyl 17-carboxy-10,13,16-tris(carboxymethyl)-8-oxo-4-thia-7,10,13,16-tetraazaheptadec-1-yl 3-[[2-[[1-imino-2-(D-mannopyranosylthio)ethyl]amino]ethyl]thio]propyl ether complexes [tilmanocept]
- uptake into KS tumor cells and CD206+ TAMs: confirmed the uptake
